Assay: Refractive index ne at 23° C., reference wavelength 546.1 nm
Type: physicochemical

With `O.O.[Na+].[Na+].[O]=[Mo](=[O])([O-])[O-]` [sodium molybdate dihydrate] as the molecule, how does the “ne (refractive index) of aqueous solution 200 g/L” value read?
Its value is 1.3619.
